The supplement of paper PMC5908809

Tests used:
KAI3 (IL-2 2.5 ng/mL) [1] = assay: relative IC50 (inflection point of fitted viability curve, relative to fitted max inhibition); higher = less sensitive; settings: 72 h
Experimental: (§1)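 Drug sensitivity and resistance testing: 5 concentrations over a 10,000-fold range, 72 h at 37 °C, viability by CellTiter-Glo normalised to DMSO and benzethonium chloride controls. IC50 is the inflection point of a logistic fit (min fixed at 0, max fitted), so it is relative to the fitted maximal inhibition. Kept only where fitted max inhibition is at least 50%.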

SNK-6 (IL-2 2.5 ng/mL) [2] = assay: as above; settings: 72 h
Experimental: as §1

DERL-7 (IL-2 2.5 ng/mL) [3] = assay: as above; settings: 72 h
Experimental: as §1

YT (IL-2 2.5 ng/mL) [4] = assay: as above; settings: 72 h
Experimental: as §1

[5] = system: normal NK cells expanded with K562-aAPC; assay: drug sensitivity score (DSS) (DSS units); higher = more sensitive; extreme values may be limits of the assay; settings: 72 h; IL-2 2.5 ng/mL
Experimental: (§2)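 Drug sensitivity and resistance testing on K562-aAPC-expanded normal NK cells: 5 concentrations (10-fold steps over a 10,000-fold range), 72 h at 37 °C, viability by CellTiter-Glo normalised to DMSO and benzethonium chloride controls; DSS from the fitted curve.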

KAI3 (IL-2 2.5 ng/mL) [6] = assay: percent inhibition of viability; higher = more inhibition; settings: 72 h
NKL (IL-2 2.5 ng/mL) [7] = assay: as above; settings: 72 h
IMC-1 (IL-2 20 ng/mL) [8] = assay: as above; settings: 72 h
[9] = system: normal primary NK cells, pool 3 (3 donors) (IL-2 2.5 ng/mL); assay: as above; settings: 72 h
KHYG-1 (IL-2 2.5 ng/mL) [10] = assay: as above; settings: 72 h
[11] = system: normal primary NK cells, pool 1 (3 donors), resting (IL-2 0 ng/mL); assay: as above; settings: 72 h
[12] = system: normal primary NK cells, pool 1 (3 donors) (IL-2 2.5 ng/mL); assay: as above; settings: 72 h
NK-YS (IL-2 2.5 ng/mL) [13] = assay: as above; settings: 72 h
SNK-6 (IL-2 2.5 ng/mL) [14] = assay: as above; settings: 72 h
DERL-7 (IL-2 2.5 ng/mL) [15] = assay: as above; settings: 72 h
[16] = system: normal primary NK cells, pool 2 (3 donors) (IL-2 2.5 ng/mL); assay: as above; settings: 72 h
YT (IL-2 2.5 ng/mL) [17] = assay: as above; settings: 72 h
NK-92 (IL-2 2.5 ng/mL) [18] = assay: as above; settings: 72 h
[19] = system: normal NK cells expanded with K562-aAPC; assay: as above; settings: 72 h, IL-2 2.5 ng/mL
Experimental: as §2

KAI3 (IL-2 2.5 ng/mL) [20] = assay: drug sensitivity score (DSS) (DSS units); higher = more sensitive; extreme values may be limits of the assay; settings: 72 h
NKL (IL-2 2.5 ng/mL) [21] = assay: as above; settings: 72 h
IMC-1 (IL-2 20 ng/mL) [22] = assay: as above; settings: 72 h
[23] = system: normal primary NK cells, pool 3 (3 donors) (IL-2 2.5 ng/mL); assay: as above; settings: 72 h
KHYG-1 (IL-2 2.5 ng/mL) [24] = assay: as above; settings: 72 h
[25] = system: normal primary NK cells, pool 1 (3 donors), resting (IL-2 0 ng/mL); assay: as above; settings: 72 h
[26] = system: normal primary NK cells, pool 1 (3 donors) (IL-2 2.5 ng/mL); assay: as above; settings: 72 h
NK-YS (IL-2 2.5 ng/mL) [27] = assay: as above; settings: 72 h
SNK-6 (IL-2 2.5 ng/mL) [28] = assay: as above; settings: 72 h
DERL-7 (IL-2 2.5 ng/mL) [29] = assay: as above; settings: 72 h
[30] = system: normal primary NK cells, pool 2 (3 donors) (IL-2 2.5 ng/mL); assay: as above; settings: 72 h
YT (IL-2 2.5 ng/mL) [31] = assay: as above; settings: 72 h
NK-92 (IL-2 2.5 ng/mL) [32] = assay: as above; settings: 72 h

NCc1ccc(OCCCc2sc(-c3ccc4c(c3)/C(=N/Nc3nc5ccccc5s3)CCC4)nc2C(=O)O)cc1 [WEHI-539]
relative IC50 (KAI3 (IL-2 2.5 ng/mL) [1]): 124 nM | relative IC50 (SNK-6 (IL-2 2.5 ng/mL) [2]): 83.3 nM | relative IC50 (DERL-7 (IL-2 2.5 ng/mL) [3]): > 2500 nM | relative IC50 (YT (IL-2 2.5 ng/mL) [4]): 70.2 nM

NCc1ccc(OCCCc2sc(-c3ccc4c(c3)/C(=N/Nc3nc5ccccc5s3)CCC4)nc2C(=O)O)cc1 [WEHI-539] (max concentration tested 2500 nM)
drug sensitivity score [5]: 0.83 | percent inhibition of viability (KAI3 (IL-2 2.5 ng/mL) [6]; 0.25 nM): -1.85% | percent inhibition of viability (KAI3 (IL-2 2.5 ng/mL) [6]; 2.5 nM): 4.39% | percent inhibition of viability (KAI3 (IL-2 2.5 ng/mL) [6]; 25 nM): 14.3% | percent inhibition of viability (KAI3 (IL-2 2.5 ng/mL) [6]; 250 nM): 67.9% | percent inhibition of viability (KAI3 (IL-2 2.5 ng/mL) [6]; 2500 nM): 102% | percent inhibition of viability (NKL (IL-2 2.5 ng/mL) [7]; 0.25 nM): 13% | percent inhibition of viability (NKL (IL-2 2.5 ng/mL) [7]; 2.5 nM): 1.4% | percent inhibition of viability (NKL (IL-2 2.5 ng/mL) [7]; 25 nM): 7.39% | percent inhibition of viability (NKL (IL-2 2.5 ng/mL) [7]; 250 nM): 11.9% | percent inhibition of viability (NKL (IL-2 2.5 ng/mL) [7]; 2500 nM): 27.7% | percent inhibition of viability (IMC-1 (IL-2 20 ng/mL) [8]; 0.25 nM): -3.28% | percent inhibition of viability (IMC-1 (IL-2 20 ng/mL) [8]; 2.5 nM): -0.97% | percent inhibition of viability (IMC-1 (IL-2 20 ng/mL) [8]; 25 nM): 1.6% | percent inhibition of viability (IMC-1 (IL-2 20 ng/mL) [8]; 250 nM): 14.1% | percent inhibition of viability (IMC-1 (IL-2 20 ng/mL) [8]; 2500 nM): 23% | percent inhibition of viability ([9]; 0.25 nM): -11.2% | percent inhibition of viability ([9]; 2.5 nM): -12% | percent inhibition of viability ([9]; 25 nM): -2.42% | percent inhibition of viability ([9]; 250 nM): 5.98% | percent inhibition of viability ([9]; 2500 nM): 13.1% | percent inhibition of viability (KHYG-1 (IL-2 2.5 ng/mL) [10]; 0.25 nM): -5.3% | percent inhibition of viability (KHYG-1 (IL-2 2.5 ng/mL) [10]; 2.5 nM): -0.64% | percent inhibition of viability (KHYG-1 (IL-2 2.5 ng/mL) [10]; 25 nM): -2.33% | percent inhibition of viability (KHYG-1 (IL-2 2.5 ng/mL) [10]; 250 nM): 9.02% | percent inhibition of viability (KHYG-1 (IL-2 2.5 ng/mL) [10]; 2500 nM): 23.4% | percent inhibition of viability ([11]; 0.25 nM): -29.9% | percent inhibition of viability ([11]; 2.5 nM): -2.37% | percent inhibition of viability ([11]; 25 nM): -4.67% | percent inhibition of viability ([11]; 250 nM): 19.2% | percent inhibition of viability ([11]; 2500 nM): -15.6% | percent inhibition of viability ([12]; 0.25 nM): -2.1% | percent inhibition of viability ([12]; 2.5 nM): -1.63% | percent inhibition of viability ([12]; 25 nM): -4.82% | percent inhibition of viability ([12]; 250 nM): 7.31% | percent inhibition of viability ([12]; 2500 nM): -1.82% | percent inhibition of viability (NK-YS (IL-2 2.5 ng/mL) [13]; 0.25 nM): 0.35% | percent inhibition of viability (NK-YS (IL-2 2.5 ng/mL) [13]; 2.5 nM): -3.08% | percent inhibition of viability (NK-YS (IL-2 2.5 ng/mL) [13]; 25 nM): -2.14% | percent inhibition of viability (NK-YS (IL-2 2.5 ng/mL) [13]; 250 nM): 6.38% | percent inhibition of viability (NK-YS (IL-2 2.5 ng/mL) [13]; 2500 nM): 5.63% | percent inhibition of viability (SNK-6 (IL-2 2.5 ng/mL) [14]; 0.25 nM): -5.1% | percent inhibition of viability (SNK-6 (IL-2 2.5 ng/mL) [14]; 2.5 nM): 4.12% | percent inhibition of viability (SNK-6 (IL-2 2.5 ng/mL) [14]; 25 nM): 22.4% | percent inhibition of viability (SNK-6 (IL-2 2.5 ng/mL) [14]; 250 nM): 69.1% | percent inhibition of viability (SNK-6 (IL-2 2.5 ng/mL) [14]; 2500 nM): 94% | percent inhibition of viability (DERL-7 (IL-2 2.5 ng/mL) [15]; 0.25 nM): -1.03% | percent inhibition of viability (DERL-7 (IL-2 2.5 ng/mL) [15]; 2.5 nM): -0.51% | percent inhibition of viability (DERL-7 (IL-2 2.5 ng/mL) [15]; 25 nM): -3.83% | percent inhibition of viability (DERL-7 (IL-2 2.5 ng/mL) [15]; 250 nM): -4.69% | percent inhibition of viability (DERL-7 (IL-2 2.5 ng/mL) [15]; 2500 nM): -10.2% | percent inhibition of viability ([16]; 0.25 nM): -8.42% | percent inhibition of viability ([16]; 2.5 nM): -8.85% | percent inhibition of viability ([16]; 25 nM): 2.42% | percent inhibition of viability ([16]; 250 nM): 22.6% | percent inhibition of viability ([16]; 2500 nM): 33.6% | percent inhibition of viability (YT (IL-2 2.5 ng/mL) [17]; 0.25 nM): 5.47% | percent inhibition of viability (YT (IL-2 2.5 ng/mL) [17]; 2.5 nM): 1.83% | percent inhibition of viability (YT (IL-2 2.5 ng/mL) [17]; 25 nM): 8.88% | percent inhibition of viability (YT (IL-2 2.5 ng/mL) [17]; 250 nM): 64.8% | percent inhibition of viability (YT (IL-2 2.5 ng/mL) [17]; 2500 nM): 70.8% | percent inhibition of viability (NK-92 (IL-2 2.5 ng/mL) [18]; 0.25 nM): -5.07% | percent inhibition of viability (NK-92 (IL-2 2.5 ng/mL) [18]; 2.5 nM): -4.42% | percent inhibition of viability (NK-92 (IL-2 2.5 ng/mL) [18]; 25 nM): -11.9% | percent inhibition of viability (NK-92 (IL-2 2.5 ng/mL) [18]; 250 nM): 16.2% | percent inhibition of viability (NK-92 (IL-2 2.5 ng/mL) [18]; 2500 nM): 23.8% | percent inhibition of viability ([19]; 0.25 nM): 6.75% | percent inhibition of viability ([19]; 2.5 nM): 1.83% | percent inhibition of viability ([19]; 25 nM): 6.37% | percent inhibition of viability ([19]; 250 nM): 11.6% | percent inhibition of viability ([19]; 2500 nM): 16.9% | drug sensitivity score (KAI3 (IL-2 2.5 ng/mL) [20]): 14.8 | drug sensitivity score (NKL (IL-2 2.5 ng/mL) [21]): 2.2 | drug sensitivity score (IMC-1 (IL-2 20 ng/mL) [22]): 2.11 | drug sensitivity score [23]: 0.44 | drug sensitivity score (KHYG-1 (IL-2 2.5 ng/mL) [24]): 1.94 | drug sensitivity score [25]: 0 | drug sensitivity score [26]: 0 | drug sensitivity score (NK-YS (IL-2 2.5 ng/mL) [27]): 0 | drug sensitivity score (SNK-6 (IL-2 2.5 ng/mL) [28]): 15.7 | drug sensitivity score (DERL-7 (IL-2 2.5 ng/mL) [29]): 0.89 | drug sensitivity score [30]: 4.17 | drug sensitivity score (YT (IL-2 2.5 ng/mL) [31]): 13.2 | drug sensitivity score (NK-92 (IL-2 2.5 ng/mL) [32]): 2.55
